The values below come from patent US20250263426A1, “PDE4B INHIBITOR AND USE THEREOF” (Xizang Haisco Pharmaceutical Co., Ltd., priority 2022, published 2025).

Amino acid sequences for entries named in this document (tags omitted). Chains listed by the source or under a name are the forms on record and can include a tag or linker. Residues count along the entry.
UniProt Q08499, 303-809 limits assumed: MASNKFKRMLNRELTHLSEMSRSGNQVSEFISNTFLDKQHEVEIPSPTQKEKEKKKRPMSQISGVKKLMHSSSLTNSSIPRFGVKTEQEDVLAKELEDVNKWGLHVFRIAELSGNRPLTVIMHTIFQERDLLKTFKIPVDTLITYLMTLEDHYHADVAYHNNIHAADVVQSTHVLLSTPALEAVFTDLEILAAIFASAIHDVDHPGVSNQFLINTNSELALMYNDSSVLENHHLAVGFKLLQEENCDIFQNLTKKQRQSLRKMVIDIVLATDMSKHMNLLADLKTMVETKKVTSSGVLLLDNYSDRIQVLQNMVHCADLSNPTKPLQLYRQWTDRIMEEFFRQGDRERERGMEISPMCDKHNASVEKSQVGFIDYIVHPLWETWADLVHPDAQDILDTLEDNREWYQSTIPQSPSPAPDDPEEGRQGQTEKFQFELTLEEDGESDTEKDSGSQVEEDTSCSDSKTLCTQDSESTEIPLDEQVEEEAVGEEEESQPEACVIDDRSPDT
UniProt Q07343, 212-736 with tags or gaps limits assumed: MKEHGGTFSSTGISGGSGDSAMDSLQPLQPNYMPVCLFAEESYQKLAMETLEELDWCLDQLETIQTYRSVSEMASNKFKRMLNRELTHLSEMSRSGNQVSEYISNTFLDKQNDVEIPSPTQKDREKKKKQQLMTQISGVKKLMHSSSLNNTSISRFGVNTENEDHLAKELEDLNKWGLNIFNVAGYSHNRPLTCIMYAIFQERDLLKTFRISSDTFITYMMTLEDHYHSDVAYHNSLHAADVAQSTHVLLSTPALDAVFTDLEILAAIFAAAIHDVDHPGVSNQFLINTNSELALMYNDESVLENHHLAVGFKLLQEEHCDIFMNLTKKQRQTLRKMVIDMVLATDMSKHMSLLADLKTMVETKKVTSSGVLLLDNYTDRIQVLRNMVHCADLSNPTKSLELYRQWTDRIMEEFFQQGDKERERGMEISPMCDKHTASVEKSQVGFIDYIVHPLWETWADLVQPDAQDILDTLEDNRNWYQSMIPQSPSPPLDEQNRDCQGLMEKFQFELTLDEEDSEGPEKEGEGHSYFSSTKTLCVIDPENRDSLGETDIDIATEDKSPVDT

One assay concerns the target PDE4D2 (Homo sapiens (Human), UniProt Q08499). The assay can be described thus: Effect of compounds on PDE4D2 activity (fluorescence polarization kit). In kind it is biochemical. To be noted: read-out: PDE4D2 IC50. (In general: Fluorescence polarisation rises when a labelled molecule tumbles more slowly, as on binding a larger partner.)
A further assay has as its target PDE4B2 (Homo sapiens (Human), UniProt Q07343). The assay can be described thus: Effect of compounds on PDE4B2 activity (fluorescence polarization kit). To be noted: read-out: PDE4B2 IC50.
The subject of assay [1] is human peripheral blood mononuclear cells (TNF-α release). The assay can be described thus: Inhibition of LPS-induced TNF-α release from human peripheral blood mononuclear cells in vitro. In kind it is cell-based. To be noted: hPBMC, 100 ng/mL LPS, 4 h; for IC50: read-out: Re IC50, relative IC50.

With `C#Cc1cnc(N2CCN(c3nc4c(c(NC5(CO)CCC5)n3)[S+]([O-])CCC4)CC2)nc1` (stereo not drawn), the IC50 at PDE4D2 and at PDE4B2 was 10 to 50 nM each time.
As for `CC(COC(N)=O)Nc1nc(N2CC=C(c3ncc(Cl)cn3)CC2)nc2c1[S@+]([O-])CC2` (single isomer, unassigned) [Compound 133-2], the IC50 at PDE4D2 and on PDE4B2 was < 10 nM each time.
For the molecule `CC(COC(N)=O)Nc1nc(N2CC=C(c3ncc(Cl)cn3)CC2)nc2c1[S@+]([O-])CC2` (single isomer, unassigned) [Compound 133-1], the IC50 at PDE4D2 is 10 to 50 nM; at PDE4B2, < 10 nM.
Turning to `C[Si]1(C)CCN(c2nc(N3CC=C(c4ncc(Cl)cn4)CC3)nc3c2[S+]([O-])CC3)CC1` (stereo not drawn), at PDE4B2, the concentration for half-maximal inhibition (IC50) was in the range of 10 to 50 nM.
On to `COCC1(Nc2nc(N3CC=C(c4ncc(C5CC5)cn4)CC3)nc3c2[S+]([O-])CCC3)CCC1` (stereo not drawn), for which the half-maximal inhibitory concentration (IC50) lay in the range of 50 to 100 nM on PDE4D2 and 10 to 50 nM at PDE4B2.
For the molecule `[O-][S+]1CCc2nc(N3CC=C(c4ncc(Cl)cn4)CC3)nc(N3CCC(O)C34CCC4)c21` (single isomer, unassigned) [Compound 71-3], the values for the half-inhibitory concentration (IC50) (at PDE4D2; in assay [1]; on PDE4B2) were 10 to 50 nM, < 10 nM and 10 to 50 nM, respectively. In assay [1], the “Max inhibition (%)” value was 61.86%.
Regarding `CC(O)C1(Nc2nc(N3CC=C(c4ncc(C5CC5)cn4)CC3)nc3c2[S+]([O-])CCC3)CCC1` (single isomer, unassigned) [Compound 144-1], the IC50 at PDE4D2 and at PDE4B2 was 10 to 50 nM throughout.
On to `CC(C)(COC(N)=O)Nc1nc(N2CC3C=C(c4ncc5c(n4)CC5)CC3C2)nc2c1[S@+]([O-])CC2` (single isomer, unassigned) [Compound 131-1], for which the IC50 on PDE4D2 and on PDE4B2 was 10 to 50 nM each time.
Regarding `CC(C)(COC(N)=O)Nc1nc(N2CC=C(c3nc4ccccc4s3)CC2)nc2c1[S+]([O-])CC2` (stereo not drawn), the “Max inhibition (%)” value in assay [1] is recorded as 74.08%.
Turning to `CC(C)(COC(N)=O)Nc1nc(N2CC=C(c3ncc(C4CC4)cn3)CC2)nc2c1[S+]([O-])CCC2` (stereo not drawn), the 50% inhibitory concentration (IC50) on PDE4D2 and at PDE4B2 was 10 to 50 nM in each case.
As to `[O-][S+]1CCc2nc(N3CC=C(c4ncc(C5CC5)cn4)CC3)nc(N3CCC(O)C34CCC4)c21` (single isomer, unassigned) [Compound 111-2], the IC50 (at PDE4D2; in assay [1]; at PDE4B2) was < 10 nM throughout. Besides, the “Max inhibition (%)” value in assay [1] was 75.39%.
With `CC(O)C1(Nc2nc(N3CC=C(c4ncc(C5CC5)cn4)CC3)nc3c2[S+]([O-])CCC3)CCC1` (single isomer, unassigned) [Compound 144-4], the concentration for half-maximal inhibition (IC50) (on PDE4D2; in assay [1]; on PDE4B2) was < 10 nM each time. Also, the “Max inhibition (%)” value in assay [1] is reported as 94.06%.
For `CC(COC(N)=O)Nc1nc(N2CC=C(c3ncc(C4CC4)cn3)CC2)nc2c1[S@+]([O-])CC2` (single isomer, unassigned), the half-inhibitory concentration (IC50) on PDE4D2 and on PDE4B2 was 10 to 50 nM in each case.
Turning to `[O-][S+]1CCc2nc(N3C[C@H]4CN(c5ccc6c(c5)CC6)C[C@H]4C3)nc(NC3(COC(F)F)CCC3)c21` (stereo partly drawn), the IC50 on PDE4D2 and on PDE4B2 was 10 to 50 nM in each case.
As to `CC(O)C1(Nc2nc(N3CC=C(c4ncc(C5CC5)cn4)CC3)nc3c2[S+]([O-])CCC3)CCC1` (single isomer, unassigned) [Compound 144-2], the IC50 on PDE4D2 and at PDE4B2 was < 10 nM each time.
`C#Cc1cnc2c(c1)OC[C@@H]1CN(c3nc4c(c(NC(C)(C)COC(N)=O)n3)[S@@+]([O-])CC4)CCN21`: the “Max inhibition (%)” value in assay [1] came to 67.98%.
Take `NC(=O)OCC1(Nc2nc(N3CC4C=C(c5ccc6c(c5)CC6)CC4C3)nc3c2[S+]([O-])CC3)CCC1` (single isomer, unassigned) [Compound 45-2]: the IC50 on PDE4D2 is 10 to 50 nM; on PDE4B2 it was < 10 nM.
As for `CNC(=O)OCC1(Nc2nc(N3CC=C(c4ncc(Cl)cn4)CC3)nc3c2[S+]([O-])CC3)CCC1` (stereo not drawn), the IC50 at PDE4D2 is < 10 nM; in assay [1] it was 10 to 50 nM; at PDE4B2, < 10 nM. The “Max inhibition (%)” value in assay [1] is 68.15%.
For `NC(=O)OCC1(Nc2nc(N3CC4C=C(c5ncc(Cl)cn5)CC4C3)nc3c2[S+]([O-])CC3)CCC1` (single isomer, unassigned) [Compound 46-2], the concentration for half-maximal inhibition (IC50) at PDE4D2 is 10 to 50 nM; in assay [1] it was 10 to 50 nM; at PDE4B2 it was < 10 nM. In addition, the “Max inhibition (%)” value in assay [1] was 73.36%.
Regarding `NC(=O)OCC1(Nc2nc(N3CC4C=C(c5ncc(Cl)cn5)CC4C3)nc3c2[S+]([O-])CC3)CCC1` (single isomer, unassigned) [Compound 46-1], the IC50 was < 10 nM on PDE4D2, 10 to 50 nM in assay [1] and < 10 nM on PDE4B2. For the same molecule, in assay [1], the “Max inhibition (%)” value is reported as 75.89%.
On to `CC(C)(COC(N)=O)Nc1nc(N2CC3C=C(c4ncc(C5CC5)cn4)CC3C2)nc2c1[S@+]([O-])CC2` (single isomer, unassigned) [Compound 121-1], for which, in assay [1], the “Max inhibition (%)” value came out at 78.80%.
`[O-][S+]1CCc2nc(N3C[C@H]4CN(c5ccc6c(c5)CC6)C[C@H]4C3)nc(NC3CCOCC3)c21` (stereo partly drawn): the IC50 (at PDE4D2; in assay [1]; at PDE4B2) was < 10 nM in each case. Further, the “Max inhibition (%)” value in assay [1] is recorded as 72.87%.
For the molecule `CC(C)(CO)Nc1nc(N2CC=C(c3ncc(Cl)cn3)CC2)nc2c1[S+]([O-])CC2` (stereo not drawn) [Compound 31], the 50% inhibitory concentration (IC50) (on PDE4D2; in assay [1]; on PDE4B2) was < 10 nM each time.
As for `C#Cc1cnc2c(c1)OC[C@H]1CN(c3nc4c(c(NC(C)(C)COC(N)=O)n3)[S@@+]([O-])CC4)CCN21`, the “Max inhibition (%)” value in assay [1] was 76.10%.
Turning to `NC(=O)OCC1(Nc2nc(N3CCN4c5ccccc5OCC4C3)nc3c2[S+]([O-])CC3)CCC1` (stereo not drawn), the IC50 on PDE4D2 is < 10 nM; in assay [1] it was 10 to 50 nM; at PDE4B2, < 10 nM. Besides, the “Max inhibition (%)” value in assay [1] was determined as 80.31%.
As for `[O-][S+]1CCc2nc(N3CC=C(c4ncc(Cl)cn4)CC3)nc(N3CCC(O)C34CCC4)c21` (single isomer, unassigned) [Compound 71-4], the IC50 (at PDE4D2; in assay [1]; at PDE4B2) was < 10 nM throughout. The “Max inhibition (%)” value in assay [1] is reported as 57.63%.
Regarding `COC(=O)NCC1(Nc2nc(N3CC=C(c4ncc(C5CC5)cn4)CC3)nc3c2[S+]([O-])CC3)CCC1` (single isomer, unassigned), the IC50 on PDE4D2 and on PDE4B2 was < 10 nM in each case.
Take `CCOc1cnc(C2=CCN(c3nc4c(c(N5CCC(O)C56CCC6)n3)[S+]([O-])CC4)CC2)nc1` (single isomer, unassigned): the 50% inhibitory concentration (IC50) on PDE4D2 and at PDE4B2 was < 10 nM in each case.
Consider `CC(C)(COC(N)=O)Nc1nc(N2C[C@H]3CN(c4ccc5c(c4)CC5)C[C@H]3C2)nc2c1[S+]([O-])CC2` (stereo partly drawn), for which, in assay [1], the “Max inhibition (%)” value amounted to 75.43%.
Turning to `[O-][S+]1CCc2nc(N3CC=C(c4ncc(C5CC5)cn4)CC3)nc(N3CCC(CO)C34CCC4)c21` (single isomer, unassigned), the concentration for half-maximal inhibition (IC50) on PDE4D2 and on PDE4B2 was < 10 nM in each case.
Turning to `NC(=O)OCC1(Nc2nc(N3CC4C=C(c5ccc6c(c5)CC6)CC4C3)nc3c2[S+]([O-])CC3)CCC1` (single isomer, unassigned) [Compound 45-1], the IC50 on PDE4D2 is < 10 nM; in assay [1], 10 to 50 nM; on PDE4B2, < 10 nM. Also, the “Max inhibition (%)” value in assay [1] worked out at 71.28%.
For the molecule `[O-][S+]1CCCc2nc(N3CCc4c(oc5cc(Cl)ccc45)C3)nc(NC3(CO)CCC3)c21` (stereo not drawn), the IC50 on PDE4D2 was 10 to 50 nM; at PDE4B2, < 10 nM.
As to `[O-][S@@+]1CCc2nc(N3CC=C(c4ncc(Cl)cn4)CC3)nc(Nc3cccc(S(F)(F)(F)(F)F)c3)c21`, the “Max inhibition (%)” value in assay [1] was determined as 72.31%. Moreover, the IC50 (in assay [1]; on PDE4B2) was 10 to 50 nM in each case.
Take `N#CCC1(Nc2nc(N3CC=C(c4ncc(Cl)cn4)CC3)nc3c2[S@+]([O-])CC3)CCC1`: the IC50 was 10 to 50 nM on PDE4D2, < 10 nM in assay [1] and < 10 nM at PDE4B2. In assay [1], the “Max inhibition (%)” value is on record as 71.03%.
Regarding `[O-][S+]1CCc2nc(N3CC=C(c4ncc(Cl)cn4)CC3)nc(N3CC[C@H](CO)C34CCC4)c21` (single isomer, unassigned) [Compound 77-1], the half-inhibitory concentration (IC50) (on PDE4D2; in assay [1]; at PDE4B2) was < 10 nM each time. Also, in assay [1], the “Max inhibition (%)” value was 65.28%.
For `[O-][S+]1CCCc2nc(N3CC=C(c4ncc(C5CC5)cn4)CC3)nc(N3CCC(O)C34CCC4)c21` (single isomer, unassigned), the IC50 on PDE4D2 and at PDE4B2 was < 10 nM throughout.
With `[O-][S+]1CCCc2nc(N3CCN(c4ccc5c(c4)CC5)CC3)nc(NC3(CO)CCC3)c21` (stereo not drawn), the figures for the IC50 at PDE4D2 and at PDE4B2 were 10 to 50 nM and < 10 nM, respectively.
As to `[O-][S+]1CCc2nc(N3CC=C(c4ncc(C5CC5)cn4)CC3)nc(N3CCC(O)C34CCC4)c21` (single isomer, unassigned) [Compound 111-4], the 50% inhibitory concentration (IC50) (at PDE4D2; in assay [1]; on PDE4B2) was < 10 nM throughout. For the same molecule, the “Max inhibition (%)” value in assay [1] was found to be 78.77%.
Take `[O-][S+]1CCc2nc(N3CC=C(c4ncc(Cl)cn4)CC3)nc(N3CC[C@@H](CO)C34CCC4)c21` (stereo partly drawn): the half-inhibitory concentration (IC50) (at PDE4D2; in assay [1]; on PDE4B2) was < 10 nM each time. Further, in assay [1], the “Max inhibition (%)” value amounted to 66.35%.
For the molecule `[O-][S+]1CCc2nc(N3CC=C(c4ncc(Cl)cn4)CC3)nc(N3CC[C@H](CO)C34CCC4)c21` (single isomer, unassigned) [Compound 77-2], the IC50 at PDE4B2 fell in the range of 10 to 50 nM.
With `CC(C)(COC(N)=O)Nc1nc(N2CC3C=C(c4ncc5c(n4)CC5)CC3C2)nc2c1[S@+]([O-])CC2` (single isomer, unassigned) [Compound 131-2], the results for the IC50 on PDE4D2 and at PDE4B2 were 50 to 100 nM and 10 to 50 nM, respectively.

The term IC50 denotes the concentration at which inhibition is half-maximal.
